From publication PMC3923439, “Anti-inflammatory properties of a novel peptide interleukin 1 receptor antagonist” (Journal of Neuroinflammation, 2014)

Biological target: T1, recombinant ectodomain of IL-1 receptor type I (IL-1RI) (UniProt P14778 18-336)
T1 construct: interleukin 1 receptor type I, ectodomain; No catalogue number, limits or tag are printed for the bought protein; also called sIL-1RI; soluble IL-1 receptor type I; source: bought: R&D Systems
T1 sequence (looked up): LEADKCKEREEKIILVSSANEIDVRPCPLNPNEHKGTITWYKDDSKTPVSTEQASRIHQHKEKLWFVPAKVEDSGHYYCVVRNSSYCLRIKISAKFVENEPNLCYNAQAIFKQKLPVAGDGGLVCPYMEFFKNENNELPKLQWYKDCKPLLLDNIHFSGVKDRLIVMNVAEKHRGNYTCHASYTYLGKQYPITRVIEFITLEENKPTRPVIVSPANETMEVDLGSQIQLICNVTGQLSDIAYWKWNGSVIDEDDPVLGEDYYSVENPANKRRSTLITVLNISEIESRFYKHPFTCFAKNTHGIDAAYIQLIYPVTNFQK
Assay: SPR; Biacore 2000; about 2,500 to 3,000 RU of Ilantide-t, IL-1β or IL-1Ra immobilised on a CM4 sensor chip; IL-1RI ectodomain (or NCAM Ig1-Ig2 as negative control) injected; 25°C, 10 mM sodium phosphate pH 7.4, 150 mM NaCl; apparent Kd
Settings: both partners purified

B1: interleukin 1 receptor antagonist (IL-1Ra), recombinant (ligand, UniProt P18510 26-177, looked up)
chain: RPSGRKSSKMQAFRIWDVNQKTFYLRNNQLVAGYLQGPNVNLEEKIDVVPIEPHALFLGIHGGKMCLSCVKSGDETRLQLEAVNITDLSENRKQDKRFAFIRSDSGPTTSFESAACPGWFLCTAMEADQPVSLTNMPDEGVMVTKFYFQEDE
notes: interleukin 1 receptor antagonist, recombinant; Not the drug anakinra, which was used only in cell and animal tests; also called IL-Ra; source: bought: R&D Systems
Question: For B1, which Kd is on record?
Answer: Its Kd is 48 nM.

Question: What about the koff of the same binder?
Answer: The koff was 0.00362 s⁻¹.

Question: What about the kon of the same binder?
Answer: The kon was 147000 M⁻¹ s⁻¹.
